## Apparent affinities of Ab-91 variants for a coronavirus HR2 peptide

The measurements come from Engelhart et al. 2022 (doi:10.1038/s41597-022-01779-4) through the FLAb antibody collection.

All variants were tested on one target, the spike HR2 peptide PDVDLGDISGINAS (SARS-CoV-2).

Ab-91 is the parent antibody, in scFv form: VL, then a (GGGGS)3 linker, then VH. The light chain is unchanged in all variants.
VL: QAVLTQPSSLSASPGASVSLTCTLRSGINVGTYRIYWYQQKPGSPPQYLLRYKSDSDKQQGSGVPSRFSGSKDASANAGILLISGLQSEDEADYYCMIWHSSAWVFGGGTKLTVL
VH: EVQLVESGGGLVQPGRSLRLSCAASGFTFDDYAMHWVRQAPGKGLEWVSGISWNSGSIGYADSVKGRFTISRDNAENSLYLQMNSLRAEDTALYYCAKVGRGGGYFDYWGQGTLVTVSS

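Phage display of a naive human antibody library on the peptide gave the parent. Library AAYL51 holds single substitutions and randomly drawn double and triple substitutions in the CDRs. Affinity was read by AlphaSeq, a pooled yeast mating assay with surface-displayed partners. Pairs that bind mate more often; barcode pairs of the diploids are counted by sequencing. A regression on co-assayed BCL2-family reference pairs converts the normalised counts of each replicate to an apparent Kd. Each pool was mated in three replicate cultures.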

Changes read parent residue, position, new residue, counted from the first residue of the VH shown.
The Kd shown is the geometric mean over detected replicates; a lower Kd is a better binder.
"not detected" means that the variant was in the library but no mating with the target was seen in any replicate; the authors take this as a sign of poor binding, and no number exists.
Order: sorted from the lowest average up, undetected variants last.
Empty control strains, which show no peptide, gave a signal in 21% of pairings with library AAYL51; the median was 34 µM and 95% of these signals were weaker than 1.8 µM. No background was subtracted.
Parent in this assay: reference entry 72 nM, copy in this library 7.5 nM.

| Kd | seen in | changes |
|---|---|---|
| 6.1 nM | 3 of 3 | D31S/W53P/D107C |
| 11 nM | 3 of 3 | D31E/G103M/G104K |
| 30 nM | 3 of 3 | G102R/Y105G/Y108R |
| 36 nM | 3 of 3 | A61I/V99I/Y105V |
| 50 nM | 3 of 3 | W53V/S57N |
| 52 nM | 3 of 3 | W53A/Y60T |
| 73 nM | 3 of 3 | D31Q/S52M |
| 210 nM | 3 of 3 | M34P/D62I/K65M |
| 520 nM | 3 of 3 | D31R/M34L/G100C |
| 1.9 µM | 2 of 3 | G26K/D30E/G100R |
| 2.4 µM | 1 of 3 | T28W/S57D/A61D |
| 5.2 µM | 3 of 3 | D30T/S57K/R101S |
| 6.3 µM | 1 of 3 | A61Q/D62Y/S63V |
| 8.4 µM | 1 of 3 | S57M/G102I/G104S |
| 12 µM | 1 of 3 | H35R/I51W/Y60Q |
| 24 µM | 1 of 3 | Y32P/D107W/Y108T |
| 34 µM | 2 of 3 | F27M/I58G/Y108W |
| 35 µM | 1 of 3 | N54P/G103S/Y105S |
| 40 µM | 1 of 3 | S55N/V64W/Y108E |
| 41 µM | 3 of 3 | D30W/H35K/F106T |
| 51 µM | 2 of 3 | A33L/G59C/G102A |
| 51 µM | 2 of 3 | S57Y/I58V/G102H |
| 57 µM | 3 of 3 | F29M/H35I/Y108T |
| 71 µM | 1 of 3 | M34F/G50V/I58V |
| 78 µM | 2 of 3 | M34F/I51C/D62R |
| 100 µM | 2 of 3 | G50W/N54G/Y60D |
| 100 µM | 2 of 3 | V99T/R101Q/Y105G |
| 130 µM | 3 of 3 | T28L/H35W/I51C |
| 130 µM | 3 of 3 | F29K/S63K/V64R |
| 160 µM | 3 of 3 | K65I/G102N/G103I |
| 170 µM | 1 of 3 | A33R/M34H/K65I |
| 200 µM | 2 of 3 | Y32S/H35L/I58F |
| 220 µM | 2 of 3 | M34Q/S63P/K65W |
| 230 µM | 1 of 3 | G26P/H35I/S52T |
| 300 µM | 1 of 3 | F27Q/S63G |
| 780 µM | 1 of 3 | D30C/A33H/F106E |
| not detected | 0 of 3 | D30V/Y32N/S57W |
| not detected | 0 of 3 | A33F/G56I |
| not detected | 0 of 3 | A33K/W53D/D107V |
| not detected | 0 of 3 | N54T/G103S |
| not detected | 0 of 3 | F27L/I51A/S63G |
| not detected | 0 of 3 | T28R/S55H/G103H |
| not detected | 0 of 3 | G26R/S55M/G59L |
| not detected | 0 of 3 | A33H/D107C |
| not detected | 0 of 3 | F27T/D31R/M34A |
| not detected | 0 of 3 | F29R/D30E |
| not detected | 0 of 3 | A33W/G56N |
| not detected | 0 of 3 | S63A/V99I/Y105N |
| not detected | 0 of 3 | G26E/Y32D/G50A |
| not detected | 0 of 3 | Y32R/H35Q/G103Q |
| not detected | 0 of 3 | D30H/H35Y/W53H |
| not detected | 0 of 3 | G100R/G102H |
| not detected | 0 of 3 | G26F/S55Q/S63H |
| not detected | 0 of 3 | Y32I/G56D/S63R |
| not detected | 0 of 3 | S57C/G100Y/D107S |
| not detected | 0 of 3 | H35W/G103S/G104N |
| not detected | 0 of 3 | D30G/G50T/D107W |
| not detected | 0 of 3 | H35S/Y60N |
| not detected | 0 of 3 | D31S/M34N/F106T |
| not detected | 0 of 3 | F29V/S57L/Y108F |
| not detected | 0 of 3 | G26Q/D31P/M34P |
| not detected | 0 of 3 | S57F/I58F/Y105T |
| not detected | 0 of 3 | G26E/R101E/F106K |
| not detected | 0 of 3 | Y32P/Y105A/F106P |
| not detected | 0 of 3 | Y32L/D62Y/S63E |